These results are taken from ChEMBL document CHEMBL1833948, “Structural determinants of opioid and NOP receptor activity in derivatives of buprenorphine” (2011).

By UniProt entry, the sequences of proteins in these tests, tags left out.
UniProt P41143, whole entry, looked up: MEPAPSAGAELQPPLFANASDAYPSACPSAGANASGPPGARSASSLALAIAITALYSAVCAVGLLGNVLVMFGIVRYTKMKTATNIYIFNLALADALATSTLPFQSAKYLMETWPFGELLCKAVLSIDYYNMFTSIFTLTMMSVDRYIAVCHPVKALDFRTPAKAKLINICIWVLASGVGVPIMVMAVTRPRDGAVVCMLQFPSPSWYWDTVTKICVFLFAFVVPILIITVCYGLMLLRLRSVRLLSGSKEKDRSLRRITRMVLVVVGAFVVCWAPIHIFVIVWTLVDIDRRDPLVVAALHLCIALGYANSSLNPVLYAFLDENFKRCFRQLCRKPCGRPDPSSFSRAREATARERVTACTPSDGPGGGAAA

SMILES strings stand for the structures.

For one assay, the species on record is Homo sapiens. The assay is described as follows: Selectivity ratio of Ki for human MOP receptor to Ki for human NOP receptor.
Consider `CO[C@]12CC[C@@]3(C[C@@H]1[C@@](C)(O)c1ccc(C(C)(C)C)cc1)[C@H]1Cc4ccc(O)c5c4[C@@]3(CCN1CC1CC1)[C@H]2O5`, for which the Ratio Ki was 50.

`CO[C@]12CC[C@@]3(C[C@@H]1[C@@](C)(O)C(C)(C)C)[C@H]1Cc4c(Cl)cc(O)c5c4[C@@]3(CCN1CC1CC1)[C@H]2O5`: the Ratio Ki amounted to 50.

Regarding `CO[C@]12CC[C@@]3(C[C@@H]1[C@](C)(O)CC(C)(C)C)[C@H]1Cc4ccc(O)c5c4[C@@]3(CCN1CC1CC1)[C@H]2O5`, the Ratio Ki is 50.

`CO[C@]12CC[C@@]3(C[C@@H]1[C@@](C)(O)C(C)(C)C)[C@H]1Cc4cc(Br)c(O)c5c4[C@@]3(CCN1CC1CC1)[C@H]2O5`: the Ratio Ki turned out to be 50.

For `CN(C(=O)Cc1ccccc1)[C@H]1CC[C@@]2(CCCO2)C[C@@H]1N1CCCC1`, the Ratio Ki came out at 50.

For `C[C@@H](NC(=O)[C@@H](N)Cc1ccc(O)cc1)C(=O)NCC(=O)N(C)[C@@H](Cc1ccccc1)C(=O)NCCO`, the Ratio Ki is 50.

Turning to `CCC(C)(C)[C@](C)(O)[C@H]1C[C@@]23CC[C@]1(OC)[C@@H]1Oc4c(O)ccc5c4[C@@]12CCN(CC1CC1)[C@@H]3C5`, the Ratio Ki was determined as 50.

`CO[C@]12CC[C@@]3(C[C@@H]1[C@@](C)(O)C(C)(C)C)[C@H]1Cc4c(Br)cc(O)c5c4[C@@]3(CCN1CC1CC1)[C@H]2O5`: the Ratio Ki amounted to 50.

For `CC1(C)SSC(C)(C)[C@@H](NC(=O)[C@@H](N)Cc2ccc(O)cc2)C(=O)NCC(=O)N[C@@H](Cc2ccccc2)C(=O)N[C@H]1C(=O)O`, the Ratio Ki was 50.

The species entered for the next assay is Homo sapiens. The assay is described as follows: Selectivity ratio of Ki for human NOP receptor to Ki for human MOP receptor.
Turning to `CO[C@]12CC[C@@]3(C[C@@H]1[C@](C)(O)CC(C)(C)C)[C@H]1Cc4ccc(O)c5c4[C@@]3(CCN1CC1CC1)[C@H]2O5`, the Ratio Ki amounted to 10.

In a further assay the target is Delta-type opioid receptor (Homo sapiens) (UniProt P41143). The assay is described as follows: Partial agonist activity at human DOP receptor expressed in CHO cells assessed as maximal stimulation of [35S]GTPgammaS binding after 60 mins by scintillation counting relative to DPDPE. In general terms: GTPγS is a poorly hydrolysed GTP analogue; its binding reports G protein activation.
For the molecule `CO[C@@]12CC[C@@]3(C[C@@H]1[C@](C)(O)C(C)(C)C)[C@H]1Cc4ccc(O)c5c4[C@@]3(CCN1CC1CC1)[C@H]2O5`, the Activity was 21%.
